According to patent US20080260842A1, “PERMEATION ENHANCING COMPOSITIONS FOR ANTICHOLINERGIC AGENTS” (priority 2004, published 2008):

Assay: Dose-ranging pharmacokinetic study of transdermal oxybutynin gel in healthy volunteers (Example 18)
Details: plasmatic ratio of metabolite; scheduled time 192; individual subjects
Procedure: The study was an open-label, randomized, parallel, three-treatment, dose-ranging pharmacokinetic study. […] The subjects were aged 19 to 53 (mean 35) years.
The oxybutynin transdermal gel formulation contained 3% w/w of oxybutynin base in a hydroalcoholic non-occlusive matrix including the unique combination of permeation enhancers of the present invention. Three different doses of the gel were administered topically once a day during 20 consecutive days: treatment A consisted in a daily amount of 1.4 g applied gel, corresponding to 42 mg oxybutynin; treatment B consisted in a daily amount of 2.0 g applied gel, corresponding to 60 mg oxybutynin; and treatment C consisted in a daily amount of 2.8 g applied gel, corresponding to 84 mg oxybutynin.

SMILES: CCNCC#CCOC(=O)C(O)(c1ccccc1)C1CCCCC1 (stereo not shown) [N-desethyloxybutynin]
- Treatment A/Treatment B Ratio - N-Desethyloxybutynin: 0
